In CN111704670A:

Target: RANKL-兔Fc (rabbit)
Experiment: cell-based or functional assay

Question: For 商购Denosumab(lot:1041075) (antibody), which 生物学活性量效曲线 IC50 (inhibition of RANKL-rabbit Fc driven RAW264.7 differentiation, TRAP/pNPP OD); Denosumab lot 1041075 is on record?
Answer: 1.03 ng/ml
